{"sequences": {"note": "Amino acid sequences for entries named in this document (tags omitted).", "UniProt P03372, whole entry": "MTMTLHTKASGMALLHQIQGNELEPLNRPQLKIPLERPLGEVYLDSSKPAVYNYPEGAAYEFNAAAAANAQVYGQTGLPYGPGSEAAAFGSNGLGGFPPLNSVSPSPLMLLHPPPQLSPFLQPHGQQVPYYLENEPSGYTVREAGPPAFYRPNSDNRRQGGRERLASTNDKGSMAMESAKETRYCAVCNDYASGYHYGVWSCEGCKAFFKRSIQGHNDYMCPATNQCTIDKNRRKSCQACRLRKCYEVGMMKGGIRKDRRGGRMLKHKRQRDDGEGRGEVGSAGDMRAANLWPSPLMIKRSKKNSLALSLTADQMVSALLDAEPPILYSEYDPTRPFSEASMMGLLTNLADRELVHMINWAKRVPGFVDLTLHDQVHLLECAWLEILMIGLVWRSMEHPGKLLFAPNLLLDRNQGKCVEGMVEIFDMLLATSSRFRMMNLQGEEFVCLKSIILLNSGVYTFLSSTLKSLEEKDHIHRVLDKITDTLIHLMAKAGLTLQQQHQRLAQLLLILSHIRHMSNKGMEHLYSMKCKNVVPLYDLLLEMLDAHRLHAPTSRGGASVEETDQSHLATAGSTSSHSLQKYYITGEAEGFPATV"}, "source": "ChEMBL document CHEMBL5335824", "about": "“Research progress of LSD1-based dual-target agents for cancer therapy” (Bioorg Med Chem, 2024)", "key": {"[1]": {"test": "Selectivity ratio of relative binding affinity for ERalpha (unknown origin) to relative binding affinity to ERbeta (unknown origin)"}, "[2]": {"molecular_target": "Estrogen receptor (Homo sapiens) (UniProt P03372)", "test": "Binding affinity to ERalpha (unknown origin) assessed as relative binding affinity incubated for 2 hrs by fluorescence polarization assay relative to control"}}}
{"smiles": "CC/C(=C(/c1ccc(OCCN(C)C)cc1)c1ccc(OC(=O)N(C)CCN(C)C2CC2c2ccccc2)cc1)c1ccccc1", "note": "(configuration not stated)", "values": [{"measurement": "Ratio", "setting": "[1]", "value": 2.7}, {"measurement": "RBA", "setting": "[2]", "value": 8.73, "unit": "%"}]}
